Five substances from US11285220B2, “Materials and methods relating to linkers for use in protein drug conjugates” (Iksuda Therapeutics Limited, priority 2014, dated 2022) can be followed below.

Data set [1] has as its system BT474 breast cancer cell tumours. Kind of data set: Multi-dose xenograft, effect on tumour growth. The class given is in vivo, mice. Conditions: 21 day therapy period. As for the experimental part:
(§1) The breast cancer cell line utilised was BT474 (Her2 expresser, with high susceptibility to trastuzumab).
Tumour growth was determined by changes in tumour volumes.

A short description of data set [2]: Multi-dose xenograft, mouse weight as measure of ADC toxicity. It counts as in vivo. Conditions: BT474 xenograft mice, over the therapy period.
From the text: as §1
Mouse weight is used (as shown in FIG. 40) to measure the toxicity of the ADC in vivo. […] This is indicative of the ADCs of the present invention being of suitable toxicity levels for use commercially.

Data set [3] relates to BT474 breast cancer cell tumours. Kind of data set: Xenograft tumour maturity histopathology (haematoxylin and eosin). The class given is in vivo, mice. The settings on record: 0.1 mg/kg, 10 day therapy period.
Data set [4] can be described thus: Stability of albumin-linker conjugates in glutathione (ESI-MS). Conditions: 1 mM glutathione, PBS pH 7.4, 37 °C, day 4. The class given is physicochemical.
The nature of data set [5]: SEC analysis of albumin-doxorubicin conjugates (monomer content, aggregation). The class given is physicochemical. As for the experimental part:
The extent of albumin-doxorubicin conjugate aggregation was determined by analysis on non-reducing SDS-PAGE and SEC chromatography.
5 μl of each conjugate was loaded on to a SEC HPLC column equilibrated with 150 mM sodium phosphate buffer at pH 7.0 and eluted at flow rate of 1 mL/min with detection at 280 nm.
A general note: In gel filtration, larger molecules generally elute earlier.

Setting [6] is: 0.1 mg/kg, relative to untreated group.

Consider “trastuzumab-PL13-NH-PEG4-val-cit-4-aminobenzoyl-MMAE”, for which the “tumour growth (tumour volume)” value in data set [1] (setting [6]) is “tumour growth delay”; in data set [1] (5 mg/kg), “complete responses”; in data set [1] (10 mg/kg), “complete responses”. Moreover, the “effect on mouse weight” value in data set [2] was “negligible effect”. Also, in data set [3], the “reduction in tumour maturity” value is “No reduction”.

albumin-PL12 conjugate showed an Albumin-GSH signal in data set [4] of about 8%.

Take albumin-DOX: the “monomer content (SEC)” value in data set [5] (150 mM sodium phosphate pH 7.0) is on record as “approximately 97.6%”.

For native albumin: wild-type serum albumin, the “tendency to aggregate (high molecular weight species, SEC)” value in data set [5] (non-conjugated and doxorubicin conjugated samples) is reported as 2.4-2.6%.

As for “Trastuzumab-maleimide-val-cit-4-aminobenzoyl-MMAE: comparison ADC comprising a known maleimide linker [reference compound]”, the results for the “tumour growth (tumour volume)” value in data set [1] (setting [6]), in data set [1] (5 mg/kg) and in data set [1] (10 mg/kg) were “tumour growth delay”, “complete responses” and “complete responses”, respectively. The “effect on mouse weight” value in data set [2] is given as “negligible effect”.
